Shown are actives, neighbours in structure and some others; about 16% of the full set was active somewhere.
miR-21 FLuc = miR-21 reporter, rising signal | HeLa miR-21 FLuc reporter, luciferase, 48 h | Potency, µM (top dose mostly 38.3 µM) | 340,000 tested, under 10 active | AID 2288; active = well fitted rising curve with a large enough effect; inconclusive = small, poorly fitted or top-dose-only effect; inactive = no such curve, though single readings can be large or run the other way;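 further: miR-21 action dims this reporter so a rising signal means less miR-21 action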
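Compounds were titrated across several concentrations (up to approximately 40 uM) and incubated 48 hours with HeLa miR-21-FLuc reporter cells (miR-21 target sequence downstream of FLuc, endogenous miR-21). Readout was firefly luciferase luminescence after lytic detection reagent.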
uPA generation = cell surface uPA generation inhibition; cell surface uPA generation assay, qHTS; Potency, µM (titrated, usually from 38.3 µM), usual class: inhibitors; 330,000 compounds, 0.31% hits; active = well fitted inhibition curve with a large enough effect; inconclusive = small, poorly fitted or top-dose-only effect; inactive = no such curve, though single readings can be large or run the other way; tested in mouse RAW 264.7 cells; also: nearly all actives have a fitted effect of over 55% in size
TDP1 cell CPT = DT40-hTDP1 cell growth loss with CPT; Potency, µM (top dose mostly 46.2 µM), usual class: inhibitors; AID 686979; 420,000 compounds, 12% hits; chicken DT40 Tdp1-/-;hTDP1 cells + 20 nM CPT, ATP luminescence, 48 h; also: nearly all actives have a fitted effect of over 55% in size
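Cell growth measured by CellTiter-Glo luminescence after a minimum 48 h, 37 C compound exposure with 20 nM CPT in Tdp1-knockout DT40 cells stably expressing hTDP1, seeded 400/well; qHTS titration format.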
TDP1 inh = TDP1 (human) enzyme inhibition. Q9NUW8. 350,000 compounds, 0.28% hits. recombinant TDP1, AlphaScreen DNA substrate cleavage. Potency, µM (doses to about 130 µM), actives largely listed as inhibitors. AID 485290; also: nearly all actives have a fitted effect of over 40% in size
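Signal: AlphaScreen proximity between streptavidin donor and anti-FITC acceptor beads on intact substrate. Reaction: Tdp1 1 nM, substrate 15 nM final, 5 min RT after 15 min compound preincubation.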
TDP1 cell noCPT = qHTS for Inhibitors of human tyrosyl-DNA phosphodiesterase 1 (TDP1): qHTS in cells in absence of CPT; Potency, µM (titrated, usually from 46.2 µM), usual class: inhibitors; DT40 Tdp1-/- hTDP1 cells, no CPT, ATP luminescence, 48 h; 420,000 compounds, 15% hits; AID 686978, 2013; also: nearly all actives have a fitted effect of over 55% in size
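Chicken DT40 Tdp1-/- cells complemented with human TDP1, screened without camptothecin (DMSO vehicle only), 400 cells/well. Compounds pin-transferred, cells incubated at 37 °C for at least 48 hr. Growth read as ATP-dependent luminescence (CellTiter-Glo, 30 min at RT).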
Large screens that a line does not name were inactive; ! = not active in a repeat. Unless noted, calls follow the shape of the dose curve; as a rule, active = well fitted curve in the direction sought with a large enough effect; inconclusive = small, poorly fitted or top-dose-only effect, or another doubt; inactive = no such curve, though single readings can be large; an effect the other way counts as inactive or inconclusive.

CCc1nc2ccc(C(=O)NCCCN3CCN(c4ccccc4F)CC3)cc2nc1CC	TDP1 cell CPT inconclusive, TDP1 cell noCPT 23µM (no result: TDP1 inh)
O=C(NCN1CCN(c2ccccc2F)CC1)c1ccccc1	none
Cc1ccc(NC(=O)c2ccc(CNS(=O)(=O)c3ccc4c(c3)C(C)(C)C(=O)N4C)cc2)cc1F	miR-21 FLuc inconclusive, TDP1 cell CPT 16µM, TDP1 cell noCPT 15µM (no result: uPA generation)
Cc1ccc(NC(=O)c2ccc(CNS(=O)(=O)c3ccc4c(c3)C(C)(C)C(=O)N4C)cc2)cc1	none (no result: uPA generation)
CCc1cccc(NC(=O)c2ccc(CNS(=O)(=O)c3ccc4c(c3)C(C)(C)C(=O)N4C)cc2)c1	miR-21 FLuc inconclusive, TDP1 cell CPT inconclusive, TDP1 cell noCPT 16µM (no result: uPA generation)
CCOc1ccccc1CNS(=O)(=O)c1ccc2c(c1)C(C)(C)C(=O)N2C	TDP1 cell CPT inconclusive, TDP1 cell noCPT 23µM!
CCc1ccccc1NS(=O)(=O)c1ccc2c(c1)C(C)(C)C(=O)N2C	TDP1 cell CPT inconclusive, TDP1 cell noCPT inconclusive (no result: TDP1 inh)
COC(=O)[C@@H]1C[C@@]2(O)[C@@H](O)[C@@H](O)[C@@H](O)C[C@H]2N1CC1CCCCC1	none
COC(=O)c1c(C)c2c(C)cc3ccccn3c-2c1C(=O)OC	TDP1 cell CPT inconclusive, TDP1 cell noCPT 29µM
COC(=O)c1cc2c(-c3ccccc3)cc3ccccn3c-2c1C(=O)OC	TDP1 cell CPT inconclusive, TDP1 cell noCPT inconclusive
CN(C)CCNC(=O)c1c(NC(=O)c2ccccc2)sc2c1CCCC2	uPA generation inconclusive, TDP1 cell CPT inconclusive, TDP1 cell noCPT 26µM (no result: TDP1 inh)
Nc1sc2c(c1C(=O)NCCc1ccccc1)CCC2	none
Nc1sc2c(c1C(=O)NCCc1ccccc1)CCCC2	TDP1 cell CPT inconclusive, TDP1 cell noCPT 15µM (no result: miR-21 FLuc, uPA generation, TDP1 inh)
Brc1ccc(NC2=Nc3ccccc3CC2)cc1	TDP1 cell CPT inconclusive, TDP1 cell noCPT 16µM
CC(Nc1ccc(Cl)cc1)c1cc(Cl)ccc1O (configuration not stated)	TDP1 cell CPT inconclusive, TDP1 cell noCPT 18µM
CCOC(=O)/C=C1\SCC(=O)N1CC(O)CN1C(=O)CS/C1=C/C(=O)OCC (configuration not stated)	none (no result: miR-21 FLuc, TDP1 inh)
COc1ccc(-c2nn(-c3ccccc3)cc2/C=C/C(=O)NCCCn2ccnc2)cc1OC	TDP1 cell noCPT 15µM (no result: uPA generation)
COc1ccc(OC)c(/C=C/C(=O)N(C)CC(=O)Nc2ccc(C)cc2)c1	TDP1 cell CPT 6.5µM, TDP1 cell noCPT 10µM
CN(CC(=O)Nc1ccc(OC(F)(F)F)cc1)C(=O)/C=C/c1ccco1	TDP1 cell CPT inconclusive, TDP1 cell noCPT 23µM (no result: miR-21 FLuc, TDP1 inh)
CC1Cc2ccccc2N1C(=O)CN(C)CC(=O)Nc1ccc(OC(F)(F)F)cc1 (configuration not stated)	TDP1 cell CPT 15µM, TDP1 cell noCPT inconclusive (no result: miR-21 FLuc)
COc1ccc(-c2nn(-c3ccccc3)cc2C(=O)NCCCn2ccnc2)cc1	TDP1 cell CPT inconclusive
COc1ccc(-c2nn(-c3ccccc3)cc2/C=C/C(=O)N(C)CC(=O)Nc2cccc(F)c2)cc1OC	TDP1 cell CPT inconclusive, TDP1 cell noCPT inconclusive (no result: miR-21 FLuc, TDP1 inh)
CCN(CC(=O)Nc1ccc(NC(C)=O)cc1)C(=O)/C=C/c1cn(-c2ccccc2)nc1-c1ccc(C)cc1	TDP1 cell CPT inconclusive, TDP1 cell noCPT 21µM
COc1cccc(NC(=O)CN(C)C(=O)/C=C/c2cn(-c3ccccc3)nc2-c2ccc(OC)c(OC)c2)c1	TDP1 cell CPT inconclusive, TDP1 cell noCPT 18µM (no result: miR-21 FLuc, TDP1 inh)
Cc1cc(C)c2c(CN3CCN(Cc4ccccc4)CC3)cc(=O)oc2c1C	TDP1 cell CPT inconclusive, TDP1 cell noCPT inconclusive (no result: TDP1 inh)
CCN1C(=O)CC(Sc2ccccc2C(=O)O)C1=O (configuration not stated)	none (no result: uPA generation)
CCOC(=O)c1c(N2C(=O)CC(Sc3ccccc3C(=O)O)C2=O)sc2c1CCCC2 (configuration not stated)	TDP1 cell CPT 15µM, TDP1 cell noCPT 15µM
O=C(O)c1ccccc1SC1CC(=O)N(c2cccc3ccccc23)C1=O (configuration not stated)	TDP1 cell CPT 1.8µM, TDP1 cell noCPT 2.6µM
COc1ccc(C2=CC(=O)C[C@H](COCc3ccccc3)N(C(=O)OC(C)(C)C)O2)cc1	TDP1 cell CPT inconclusive, TDP1 cell noCPT 18µM (no result: miR-21 FLuc, TDP1 inh)
